The other results are listed elsewhere or left out. The source made the active and inactive calls.

The test system of this assay is Adrenergic alpha 2 (non-selective). Nature of the assay: PubChem AID 652083. To be noted: CEREP radioligand binding panel, % inhibition at 10 uM, stronger effect = higher value.

With `COC(=O)c1cc(Br)cnc1N1CCC(NC2CCCCC2)C(O)C1` (stereo unspecified), the inhibition of specific binding was inactive: 1%.
